Values of other authors in patent US4020150A (priority 1974, dated 1977).

Conditions: in water; cited from earlier work

In the case of `Nc1ccc(S(=O)(=O)Nc2ncccn2)cc1` [sulfadiazine], the pKa is listed as 6.5.
